Measured values: ChEMBL document CHEMBL4630905

Chains of the proteins cited; added tags and fusions are not shown. Lines headed by an entry give the natural chain unless they say otherwise; changes in a name come on top.
UniProt P41143, whole entry, looked up: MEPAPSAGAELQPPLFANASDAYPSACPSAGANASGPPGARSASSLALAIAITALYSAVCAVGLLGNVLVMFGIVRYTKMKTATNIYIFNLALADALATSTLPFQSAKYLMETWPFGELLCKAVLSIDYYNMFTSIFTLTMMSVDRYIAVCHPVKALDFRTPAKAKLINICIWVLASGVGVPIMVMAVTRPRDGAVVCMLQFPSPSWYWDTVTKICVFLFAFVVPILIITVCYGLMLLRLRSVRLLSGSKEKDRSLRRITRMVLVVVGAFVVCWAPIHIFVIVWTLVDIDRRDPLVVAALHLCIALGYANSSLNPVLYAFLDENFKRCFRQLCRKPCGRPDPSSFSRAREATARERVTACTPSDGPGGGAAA
UniProt P35372, whole entry, looked up: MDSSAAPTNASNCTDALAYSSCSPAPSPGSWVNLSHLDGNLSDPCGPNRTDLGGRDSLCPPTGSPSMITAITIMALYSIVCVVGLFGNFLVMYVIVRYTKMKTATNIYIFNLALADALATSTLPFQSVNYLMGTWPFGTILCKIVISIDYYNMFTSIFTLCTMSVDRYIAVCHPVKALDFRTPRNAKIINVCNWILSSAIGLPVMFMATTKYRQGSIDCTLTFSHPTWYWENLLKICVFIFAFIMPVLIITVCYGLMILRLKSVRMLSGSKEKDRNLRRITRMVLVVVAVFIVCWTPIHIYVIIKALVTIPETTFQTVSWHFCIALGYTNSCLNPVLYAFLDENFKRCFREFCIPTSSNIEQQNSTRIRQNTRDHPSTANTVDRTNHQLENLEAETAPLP
UniProt P41145: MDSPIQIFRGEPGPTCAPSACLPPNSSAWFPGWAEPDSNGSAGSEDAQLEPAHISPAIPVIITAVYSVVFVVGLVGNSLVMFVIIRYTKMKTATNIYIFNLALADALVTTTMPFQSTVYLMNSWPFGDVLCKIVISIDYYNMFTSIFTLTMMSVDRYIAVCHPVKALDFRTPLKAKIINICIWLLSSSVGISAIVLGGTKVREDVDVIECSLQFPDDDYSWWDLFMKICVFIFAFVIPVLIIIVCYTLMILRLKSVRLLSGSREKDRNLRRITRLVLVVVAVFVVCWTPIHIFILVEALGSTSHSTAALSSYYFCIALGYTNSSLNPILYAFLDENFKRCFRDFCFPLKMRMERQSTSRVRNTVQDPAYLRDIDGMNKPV
UniProt P41595, whole entry, looked up: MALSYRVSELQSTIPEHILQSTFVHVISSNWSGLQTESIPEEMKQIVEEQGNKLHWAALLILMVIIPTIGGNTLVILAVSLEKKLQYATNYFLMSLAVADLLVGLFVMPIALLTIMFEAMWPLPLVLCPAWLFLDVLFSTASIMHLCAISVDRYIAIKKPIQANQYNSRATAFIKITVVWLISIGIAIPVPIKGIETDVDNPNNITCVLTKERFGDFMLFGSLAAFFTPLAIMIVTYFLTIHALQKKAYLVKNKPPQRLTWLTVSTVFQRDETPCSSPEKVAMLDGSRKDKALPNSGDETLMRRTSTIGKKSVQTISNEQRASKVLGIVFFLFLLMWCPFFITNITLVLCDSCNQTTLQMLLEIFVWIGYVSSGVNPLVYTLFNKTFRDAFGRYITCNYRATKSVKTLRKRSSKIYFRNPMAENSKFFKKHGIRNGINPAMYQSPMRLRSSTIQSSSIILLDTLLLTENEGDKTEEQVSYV
UniProt Q99720, whole entry, looked up: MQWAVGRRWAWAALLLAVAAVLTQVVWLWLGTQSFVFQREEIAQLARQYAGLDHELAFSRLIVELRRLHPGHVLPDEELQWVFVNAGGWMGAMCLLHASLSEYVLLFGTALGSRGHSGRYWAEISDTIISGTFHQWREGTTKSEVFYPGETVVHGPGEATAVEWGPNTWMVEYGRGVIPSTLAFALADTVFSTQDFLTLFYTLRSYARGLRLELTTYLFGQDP

Legend:
Conditions in all cases: Compound concentration 10.0 uM
[1] = biological target: Delta-type opioid receptor (Homo sapiens) (UniProt P41143); test: GPCRScan assay: inhibition of DOR; design: radioligand conc. used [nm] 1.0 – 2.0, parental cells stable HEK
[2] = biological target: Mu-type opioid receptor (Homo sapiens) (UniProt P35372); test: GPCRScan assay: inhibition of MOR
[3] = biological target: Kappa-type opioid receptor (Homo sapiens) (UniProt P41145); test: GPCRScan assay: inhibition of KOR
[4] = biological target: 5-hydroxytryptamine receptor 2B (Homo sapiens) (UniProt P41595); test: GPCRScan assay: inhibition of 5-HT2B; design: radioligand conc. used [nm] 1.0 – 2.0, parental cells stable HEK
[5] = biological target: Sigma non-opioid intracellular receptor 1 (Homo sapiens) (UniProt Q99720); test: GPCRScan assay: inhibition of Sigma 1; design: radioligand conc. used [nm] 4.0 – 5.0, parental cells HEKT

Measured: inhibition

Cc1cc2c(-c3ccco3)cnc(N[C@@H]3CCN(C)C[C@H]3C(=O)NC3CCCCC3)c2[nH]c1=O
inactive: [1] 40.9% | [2] 27% | [3] 28.1% | [4] 9.16% | [5] 22.6%

Cc1cc2c(-c3ccco3)cnc(N[C@H]3CCN(C)C[C@@H]3C(=O)NC3CCCCC3)c2[nH]c1=O
inactive: [1] 22% | [2] 24.3% | [3] 34.9% | [4] 24.3%
